Laboratory results as given in patent publication US20170001956A1, “HYDROCARBYL CARBOXYBETAINE AND METHOD FOR PREVENTING HOFMANN ELIMINATION IN ALKALINE ENVIRONMENT” (NATIONAL CHUNG CHENG UNIVERSITY, priority 2015, published 2017).

Chains of the proteins cited; added tags and fusions are not shown. Lines headed by an entry give the natural chain unless they say otherwise; changes in a name come on top.
UniProt P02769: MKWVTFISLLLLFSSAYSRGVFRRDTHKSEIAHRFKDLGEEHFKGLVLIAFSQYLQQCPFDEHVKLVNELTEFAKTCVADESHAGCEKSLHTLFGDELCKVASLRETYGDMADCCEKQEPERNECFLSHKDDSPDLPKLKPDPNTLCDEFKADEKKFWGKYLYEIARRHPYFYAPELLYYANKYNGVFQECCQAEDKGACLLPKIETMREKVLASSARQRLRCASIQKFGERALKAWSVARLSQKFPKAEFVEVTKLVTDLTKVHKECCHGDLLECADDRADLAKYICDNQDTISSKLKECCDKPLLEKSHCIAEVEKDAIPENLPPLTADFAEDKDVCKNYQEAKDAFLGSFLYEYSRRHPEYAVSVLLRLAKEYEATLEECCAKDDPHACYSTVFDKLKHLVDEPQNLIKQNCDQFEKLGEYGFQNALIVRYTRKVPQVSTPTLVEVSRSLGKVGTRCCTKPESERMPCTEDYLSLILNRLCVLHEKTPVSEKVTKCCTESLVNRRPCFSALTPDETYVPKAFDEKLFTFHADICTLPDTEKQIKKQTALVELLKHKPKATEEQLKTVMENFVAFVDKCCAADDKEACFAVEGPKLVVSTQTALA

Molecular target: BSA (Bos taurus, UniProt P02769)
Assay: Nonspecific adsorption test for BSA protein in SPR biosensor, gold film
Details: Substrate 2; 10 minutes of protein adsorption, PBS buffer wash; FIG. 8

In the case of carboxy-beta-methyl-betaine disulfide, the “nonspecific adsorption of BSA after PBS wash” value is reported as “BSA is removed from the surface”.
